{
  "source": "patent US8680142B2",
  "about": "“Ascorbate, vitamin K3 and hydroxytolans in the treatment of cancer” (Kent State University, priority 2007, dated 2014)",
  "origin": "cited, not measured here",
  "test_system": "Mice",
  "details": "oral 500 mg/Kg daily over 30 days; cited from earlier work",
  "data": [
    {"smiles": "CC1=CC(=O)c2ccccc2C1=O", "note": "[VK3, 2-methyl-1,4-naphthoquinone]", "values": [
      {"measurement": "chronic toxicity", "value": "toxic"}
    ]}
  ]
}
